Columns and labels:
[1] = In vitro human microsomal metabolism; conditions: estimated from measured rate of degradation in vitro
[2] = Mouse pharmacokinetics after oral dosing; format: in vivo; conditions: mice, 50 mg/kg oral for 2 to 4 days
PfDHODH = PfDHODH (Plasmodium falciparum, UniProt Q08210); conditions: PfDHODH vs human DHODH; cited from earlier work

The chains behind the UniProt entries cited, without tags or fusion partners. Residues count along the entry.
UniProt Q08210, 158-569: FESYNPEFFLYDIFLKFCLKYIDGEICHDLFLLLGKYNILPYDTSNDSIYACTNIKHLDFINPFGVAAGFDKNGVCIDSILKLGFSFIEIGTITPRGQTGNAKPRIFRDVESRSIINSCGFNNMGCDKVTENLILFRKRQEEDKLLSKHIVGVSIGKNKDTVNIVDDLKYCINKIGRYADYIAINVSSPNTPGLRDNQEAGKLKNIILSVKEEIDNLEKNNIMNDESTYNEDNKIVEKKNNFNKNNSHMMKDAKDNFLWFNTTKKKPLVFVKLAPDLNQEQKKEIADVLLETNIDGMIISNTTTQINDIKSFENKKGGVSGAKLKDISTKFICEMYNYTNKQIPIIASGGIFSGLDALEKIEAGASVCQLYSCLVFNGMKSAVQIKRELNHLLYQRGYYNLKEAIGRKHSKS

Cc1cc(Nc2ccc3ccccc3c2)n2ncnc2n1 [Compound 2, (5-methyl-[1,2,4]triazolo[1,5-a]pyrimidin-7-yl)-naphthalen-2-yl-amine]
Predicted EH (hepatic extraction ratio) [1]: 0.84 | plasma concentrations after last dose of repeat dosing relative to single dose [2]: significantly reduced | selectivity for the malarial enzyme compared to human DHODH (PfDHODH): greater than 4,000 fold

— PMC2746568 (Journal of medicinal chemistry, 2009)
